Measured values as given in US12060577B2, “Compositions for expanding natural killer cells” (CASE WESTERN RESERVE UNIVERSITY, priority 2017, dated 2024).

System: NK cells
Assay: ex vivo NK cell expansion with irradiated feeder cells
Type: cell-based, human
Conditions: IL-2 10, 200 and 1000 U/mL
Source text: According to the disclosed methods, NKF cells are irradiated to prevent their expansion and then co-cultured with NK cells. NKF cells are rapidly killed by NK cells during the co-culture, leading to concomitant expansion of the NK cells. […] Without wishing to be bound by theory, the prevention of senescence is believed to be due partially to the mbIL-21 on the feeder cells.
To assess their expansion potential, OCI-AML3 (this line is commercially available from, e.g. DSMZ, Braunschweig, Germany, it is not available at ATCC) and HL-60 cells (also commercially available from, e.g., DSMZ, Braunschweig, Germany) cells were cultured in RPMI 1640 media (Hyclone) supplemented with 10% calf serum (Hyclone), penicillin (100 U/mL), and streptomycin (100 μg/mL). Testing for Mycoplasma contamination was performed on all cell lines at regular intervals using the Mycoplasma Detection Kit-Quick Test (www.bimake.com). Once cultured and collected, the OCI-AML3 or HL-60 cells were irradiated using gamma irradiation (30 Gy) to obtain irradiated feeder cells.
Peripheral blood mononuclear cells (PBMC's) were isolated from peripheral blood of healthy human donors via FICOLL (GE Healthcare) gradient centrifugation. […] Referring to FIG. 2, the OCI-AML3 cell line (unfilled bar) led to a 4.6-fold expansion over a 1-week incubation period as measured by cell counting using a hematocytomer. […]

Substance: IL-2: interleukin cytokine used as cytokine support in NK cell culture
- effect of IL-2 concentration on proliferative capacity of the feeder cell expansion: not resulting in a statistically significant difference
